We go through 1 substance from PMC3479967, “Drug-Drug Interactions Potential of Icariin and Its Intestinal Metabolites via Inhibition of Intestinal UDP-Glucuronosyltransferases” (Evidence-based Complementary and Alternative Medicine : eCAM, 2012).

For one data set, the target named is T1, UGT1A6 (Homo sapiens, UniProt P19224).
T1 sequence (P19224 27-532): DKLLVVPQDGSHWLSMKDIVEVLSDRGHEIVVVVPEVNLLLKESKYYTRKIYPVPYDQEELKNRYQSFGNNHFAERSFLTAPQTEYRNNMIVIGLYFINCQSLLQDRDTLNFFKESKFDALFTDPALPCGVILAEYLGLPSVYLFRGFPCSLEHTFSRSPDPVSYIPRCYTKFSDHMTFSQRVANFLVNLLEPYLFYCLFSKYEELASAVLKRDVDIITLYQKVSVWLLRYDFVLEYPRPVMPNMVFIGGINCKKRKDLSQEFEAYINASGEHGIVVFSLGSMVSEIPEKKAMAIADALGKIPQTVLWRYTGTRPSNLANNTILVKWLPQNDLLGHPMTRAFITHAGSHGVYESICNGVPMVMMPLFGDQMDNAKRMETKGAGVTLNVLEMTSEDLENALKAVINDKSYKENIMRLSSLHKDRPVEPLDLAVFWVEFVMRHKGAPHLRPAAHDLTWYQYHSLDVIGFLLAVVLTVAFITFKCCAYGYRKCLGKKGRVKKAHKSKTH
The experiment in a line: Inhibition of recombinant UGT1A6 activity (4-MU glucuronidation). The conditions noted are these: read-out: IC50 for inhibition of UGT1A6 activity; recombinant human UGT1A6, 110 μM 4-MU, mean ± SD. Here is the method: (§1) A panel of recombinant human UGT supersomes (UGT1A1, UGT1A3, UGT1A4, UGT1A6, UGT1A7, UGT1A8, UGT1A9, UGT1A10, UGT2B4, UGT2B7, UGT2B15, and UGT2B17) expressed in baculovirus-infected insect cells were purchased from BD Gentest Corp. (Woburn, MA, USA).
(§2) 4-MU, a nonselective substrate of UGTs, was used as probe substrate for all UGTs except UGT1A4. Incubations with each individual enzyme were conducted using conditions previously described. There was a 5 min preincubation step at 37°C before the reaction was started by addition of UDPGA. The incubation mixtures were then centrifuged at 20,500 ×g for 15 min to obtain the supernatant. Aliquots (20 μL) were then analyzed by HPLC. The HPLC system (SHIMADZU, Kyoto, Japan) consisted of an SCL-10A system controller, two LC-10AT pumps, a SIL-10A auto injector, and a SPD-10AVP UV detector. Chromatographic separation was achieved using a Kromasil ODS column (4.6 × 150 mm I.D., 5 μm particle size) at a flow rate of 1 mL/min and UV detection at 316 nm. The mobile phase consisted of 10 mM KH2PO4, pH 2.7 (A) and acetonitrile (B). […]
(§3) Inhibition data from experiments were graphically represented by Dixon plots. K i values were calculated by nonlinear regression using the equations for competitive inhibition (1), noncompetitive inhibition (2), or mixed inhibition (3), [22] […]

The nature of data set [1]: Calculation of possible maximum concentrations in blood. Also noted: species or system human. The conditions noted are these: calculated, after a single oral administration of Epimedium pubescens decoction.
In the next data set the target is T2, UGT2B17 (Homo sapiens, UniProt O75795).
T2 sequence (O75795 24-530): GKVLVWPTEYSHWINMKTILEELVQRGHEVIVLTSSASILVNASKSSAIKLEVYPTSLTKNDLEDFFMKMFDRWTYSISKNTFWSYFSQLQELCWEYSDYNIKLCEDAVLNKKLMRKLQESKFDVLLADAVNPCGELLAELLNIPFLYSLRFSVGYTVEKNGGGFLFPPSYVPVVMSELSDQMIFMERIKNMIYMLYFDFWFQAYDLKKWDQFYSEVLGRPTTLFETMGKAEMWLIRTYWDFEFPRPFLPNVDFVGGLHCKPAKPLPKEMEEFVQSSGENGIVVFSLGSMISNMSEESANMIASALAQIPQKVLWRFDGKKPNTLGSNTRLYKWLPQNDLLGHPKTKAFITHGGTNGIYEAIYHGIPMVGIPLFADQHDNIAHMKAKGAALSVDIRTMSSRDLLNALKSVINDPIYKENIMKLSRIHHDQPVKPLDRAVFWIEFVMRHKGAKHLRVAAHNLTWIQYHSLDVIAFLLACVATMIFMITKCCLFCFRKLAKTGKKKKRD
Kind of data set: Inhibition of recombinant UGT2B17 activity (4-MU glucuronidation). The conditions noted are these: read-out: IC50 for inhibition of UGT2B17 activity; recombinant human UGT2B17, 2000 μM 4-MU, mean ± SD. Here is the method:
as §1, §2, §3

For Icariside II, the IC50 at UGT1A6 and at UGT2B17 was more than 100 µM each time. The “Possible maximum concentration in human blood” value in data set [1] is approximately 1.5 nM.
